Test results published in ChEMBL document CHEMBL1944597, “Synthesis and evaluation of non-basic inhibitors of urokinase-type plasminogen activator (uPA)” (Bioorg Med Chem, 2012).

Molecular target: Urokinase-type plasminogen activator (Homo sapiens, UniProt P00749)
Test: Inhibition of human uPA using pyroGlu-Gly-Arg-p-NA.HCl as substrate preincubated for 15 mins prior substrate addition measured for 10 mins by spectrophotometry

Compound: [H]/N=C(\N)c1ccc2cc(C(=O)Nc3ccc(CN)cc3)ccc2c1
- IC50: 1200 nM
